In patent publication US6534524B1, “Indazole compounds and pharmaceutical compositions for inhibiting protein kinases, and methods for their use” (Agouron Pharmaceuticals, Inc., priority 1999, dated 2003):

Assay: Determination of inhibitor concentration in mouse plasma after intraperitoneal and oral dosing
Assay type: in vivo
Settings: vehicle PEG400:H2O pH 2.3 30:70

Structure (SMILES)	plasma half-life (T1/2) (IP, 25 mg/kg) [h]	plasma half-life (T1/2) (PO, 50 mg/kg) [h]	Cmax (female, IP, 25 mg/kg) [ng/mL]
O=C(Nc1cccc(Oc2ccc3c(/C=C/c4c[nH]cn4)n[nH]c3c2)c1)c1ccccc1 [Example 32(a), 6-[3-Benzamidophenoxy]-3-E-[2-(1H-imidazol-4-yl)ethenyl]-1H-indazole]	3.7	1.1	–
CNC(=O)c1ccccc1Sc1ccc2c(/C=C/c3ccccn3)n[nH]c2c1 [Example 33(a), 6-[2-(methylcarbamoyl)phenylsulfanyl]-3-E-[2-(pyridin-2-yl)ethenyl]indazole]	1.1	0.8	–
O=C(NCc1cccc(F)c1)c1ccccc1Sc1ccc2c(/C=C/c3ccccn3)n[nH]c2c1 [Example 35(ff)]	1.7	–	–
CCn1nc(C)cc1C(=O)Nc1cc(C(=O)c2ccc3c(/C=C/c4ccccn4)n[nH]c3c2)ccc1C [Example 41(ee), 6-[3-((1-Ethyl-3-methyl-1H-pyrazol-5-yl)carboxanido)-4-methylbenzoyl]-3-E-[2-(pyridin-2-yl)ethenyl]-1H-indazole]	–	–	> 5000
